Values quoted from earlier work in PMC8453943 (Clinical Pharmacology in Drug Development, 2021).

Test system: EGFR
Conditions: NSCLC with EGFR exon 20 insertion mutations; cited from earlier work

COc1cc2ncnc(Nc3ccc(F)c(Cl)c3)c2cc1OCCCN1CCOCC1 [gefitinib]
Median progression-free survival: ≈ 2 months
